Read-outs that look alike come from different tables or passages of the source.
Columns and labels:
[1] = tested on: damaged rabbit carotid arteries
[2] = tested on: damaged rabbit carotid arteries; settings: 100 μM, artery harvested immediately (FIG. 1)

## [^3H]-NHS-propionate
[1]; 100 μM, 3 minute incubation, three days (FIG. 2)
  retention after three days based on residual radioactivity in the artery: 10.94%
[1]; 100 μM, 3 minutes incubation, 3 days (FIG. 3)
  retention efficiency, % of total amount incubated: 0.6 % of total amount incubated
[1]; 3 minutes incubation, 3 days (FIG. 3)
  enhancement in retention, covalently versus non covalently bound propionate: 12 fold
[1]; after restitution of blood flow, 72 hours (FIG. 2)
  retention of the material 72 hours after injury: approximately 10%
[2]; 30 seconds of incubation
  association efficiency: 2.55%
[2]; 3 min incubation
  association efficiency: 5.5%
[2]; 30 min incubation
  association efficiency: 6.5%

— patent US20030170250A1, “Local delivery of long lasting therapeutic agents” (priority 1998, published 2003)
